Target: AAV6 VP1-BR FITC-tagged peptide (residues 120-172) (adeno-associated virus serotype 6 (AAV6))
Experiment: fluorescence polarisation; FITC-tagged AAV6 VP1-BR peptide at 2 nM; importin isoforms serially diluted from an upper concentration of 4.5 µM; three independent experiments

“human importin α1 lacking the IBB domain (hIMPα1ΔIBB) (from UniProt P52292 1-529) (domain or fragment)” gave a Kd of 557 nM.

Reference: PMC11784021
